Reference: PubChem BioAssay AID652031 (The Scripps Research Institute Molecular Screening Center, 2013)
Only a part is listed here, and it is no random draw. Activity calls are given as the source filed them. Cut-off read from the data, not from the text of the source: active = inhibition above about 50%; inactive = the rest.

By UniProt entry, the sequences of proteins in these tests, tags left out.
UniProt P41145, whole entry: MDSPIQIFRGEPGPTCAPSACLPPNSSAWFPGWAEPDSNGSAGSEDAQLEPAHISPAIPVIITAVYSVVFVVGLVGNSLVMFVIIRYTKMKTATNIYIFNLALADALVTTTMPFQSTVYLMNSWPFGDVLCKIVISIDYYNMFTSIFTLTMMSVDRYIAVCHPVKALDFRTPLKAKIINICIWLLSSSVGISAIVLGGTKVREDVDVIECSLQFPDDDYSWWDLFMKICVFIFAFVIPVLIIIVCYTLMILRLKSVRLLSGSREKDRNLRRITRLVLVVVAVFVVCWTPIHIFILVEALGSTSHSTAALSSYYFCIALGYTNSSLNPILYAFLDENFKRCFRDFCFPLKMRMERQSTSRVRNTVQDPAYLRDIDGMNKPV

The molecules below were run against Kappa-type opioid receptor (Homo sapiens) (UniProt P41145) (assay: blocks the human kappa opioid receptor, Maybridge compounds (AID 652031)). Conditions: OPRK1 cells, antagonist mode, fluorescence readout; at 9 µM; hits give high values.

Structure (SMILES) | inhibition
Cc1ccccc1NC1CC(C)(C)NC(C)(C)C1 | inactive: -0.2%
